# Measured values published in PubChem BioAssay AID1979 (Broad Institute, 2009).
# The entries are a selection whose mix differs from that of the whole data set. The source made the active and inactive calls.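 How the source made its calls: active means growth inhibition above about 58% in most replicates (limit read from the data, passing the limit was not always enough); inconclusive means exactly half the replicates above a set limit; inactive means most replicates below a set limit.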
# Assay: C. albicans growth inhibition with fluconazole, primary screen, CaCi-2 strain, Alamar Blue fluorescence (AID 1979);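 further: all wells also contain fluconazole at 8 µg/ml as a sub-toxic cotreatment; 0% = median of DMSO wells and 100% = median of geldanamycin control wells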
# Conditions: C. albicans CaCi-2 (fluconazole-resistant clinical isolate) + fluconazole, 48 h, stronger effect = higher value, concentration not given here
row,Compound,growth inhibition
1,CCc1ccc(OP(C)(=O)Nc2cccnc2)cc1 (centres undefined),inactive: -8.36%
2,CC(C)(C)c1ccc(OP(C)(=O)O)cc1,inactive: 20.5%
3,Nc1ccc([As](=O)(O)c2ccc(N)cc2)cc1,inactive: -3.12%
4,COc1ccccc1OP(C)(=O)Nc1ccccc1Br (centres undefined),inactive: 9.99%
5,C[N+]1=C2C=CC=CC=C2SC12C([N+](=O)[O-])=CC([N+](=O)[O-])=C[C-]2[N+](=O)[O-] (centres undefined),inactive: 7.66%
6,CCN(/C(=N/P(=O)(N1CCOCC1)N1CCOCC1)N1CCOCC1)c1ccc(OC)cc1,inactive: 6.64%
7,CP(=O)(Nc1ccc(Cl)cc1)Oc1ccc(F)cc1 (centres undefined),inactive: 10.6%
8,CC(C)=N/N=C(\N)N[N+](=O)[O-],inactive: -1.6%
9,CN(C)C(=O)OCCc1n(C)cc[n+]1C,inactive: -16.9%
10,CC1CCN(C(=O)Oc2c(Cl)cc(Cl)c3cccnc23)CC1,inactive: 11%
11,Nc1ccc2c(ccc3cccnc32)n1.O=[N+]([O-])c1cc([N+](=O)[O-])c(O)c([N+](=O)[O-])c1,inactive: 2.46%
12,CCOC(=O)c1ccc(NP(C)(=O)Oc2ccc(Cl)cc2)cc1 (centres undefined),inactive: 20.5%
13,O=C(Nc1cc([As](=O)(O)O)ccc1O)c1ccccc1,inactive: -2.5%
14,CP(=O)(OC12CC3CC(CC(C3)C1)C2)OC12CC3CC(CC(C3)C1)C2,inactive: -21.4%
15,CC(C)(C)C(=O)NC(Sc1ccncn1)C(Cl)(Cl)Cl (centres undefined),inactive: -0.483%
16,O=[N+]([O-])c1ncn(CCn2ncnc2[N+](=O)[O-])n1,inactive: 3.62%
17,O=[N+]([O-])c1cccc(NC2=NCC(CBr)S2)c1 (centres undefined),inactive: -3.19%
18,O=C(O)CNc1ccc([As](=O)(O)O)cc1,inactive: 0.285%
19,CCOC(=O)Nc1ccc([As](=O)(O)O)c(O)c1,inactive: -1.82%
20,CCCCOc1ccc(C(=O)NCC2(N3CCCCC3)CCCCC2)cc1OC,inactive: -10.1%
21,Cc1cc(SC(NC(=O)c2ccccc2)C(Cl)(Cl)Cl)nc(C(C)C)n1 (centres undefined),inactive: -7.41%
22,CCOC(=O)Nc1cccc([As](=O)(O)O)c1,inactive: 6.99%
23,CP(=S)(Nn1cnnc1)Oc1ccccc1 (centres undefined),inactive: -6.16%
24,CP(=O)(Nc1ccccc1Br)Oc1ccccc1 (centres undefined),inactive: 6.01%
25,O=[N+]([O-])c1ccc(Nc2ccc(Oc3ccc([N+](=O)[O-])cc3[N+](=O)[O-])cc2)c([N+](=O)[O-])c1,inactive: 1.79%

row,Compound,growth inhibition
1,Cc1cc(SC(NC=O)C(Cl)(Cl)Cl)ncn1 (centres undefined),inactive: 6.81%
2,COc1ccccc1OP(C)(=O)Nc1ccccc1 (centres undefined),inactive: 10.4%
3,Cc1cccc(C)c1OP(C)(=O)Nc1ccc(SC(F)(F)F)cc1 (centres undefined),inactive: -3.03%
4,CP(=O)(Nc1ccc(SC(F)(F)F)cc1)Oc1ccc(Cl)cc1 (centres undefined),inactive: -7.85%
5,COP1(=S)c2c(C)nn(CCC#N)c2N=C(c2ccc(F)cc2)N1C (centres undefined),inactive: 2.18%
6,CP(=O)(Oc1ccccc1)OC(c1ccccc1)C(F)(F)F (centres undefined),inactive: -21.2%
7,CCc1ccc(OP(C)(=O)N2CCN(c3ccc([N+](=O)[O-])cc3)CC2)cc1 (centres undefined),inactive: -7.66%
8,O=C(COc1ccccc1)OC1CN2CCC1CC2 (centres undefined),inactive: 20.4%
9,CP(=O)(NC(=O)Nc1ccccc1)Oc1ccccc1 (centres undefined),inactive: 3.38%
10,O=C(Nc1ccncc1[N+](=O)[O-])c1ccc([N+](=O)[O-])cc1[N+](=O)[O-],inactive: 20.6%
11,Cc1cc(C)cc(OP(C)(=O)Nc2ccc(SC(F)(F)F)cc2)c1 (centres undefined),inactive: 2.91%
12,CCOC(=O)c1ccc(NC(=O)C(C)(CCl)SC)cc1 (centres undefined),inactive: -1.15%
13,CCOC(=O)c1ccc(NP(C)(=O)Oc2ccc(OC)cc2)cc1 (centres undefined),inactive: 10.7%
14,O=[N+]([O-])c1cc([N+](=O)[O-])c(O)c([N+](=O)[O-])c1.c1ccc(Oc2ccncc2)cc1,inactive: -0.0349%
15,CCOP(C)(=S)SCC(=O)NC(C)C(=O)O (centres undefined),inactive: -7.34%
16,O=C(OC1CN2CCC1CC2)c1cccc([N+](=O)[O-])c1 (centres undefined),inactive: 6.86%
17,CP(=O)(Nc1ccccn1)Oc1ccc(Cl)cc1 (centres undefined),inactive: -7.48%
18,O=C(OC1CN2CCC1CC2)C12CC3CC(CC(C3)C1)C2 (centres undefined),inactive: -13.3%
19,CCN(CC)CCCOC(=O)C(O)(c1ccccc1)c1ccccc1,inactive: -5.2%
20,Cc1cc(=O)[nH]c(N[N+](=O)[O-])n1,inactive: -1.67%
21,Cc1c2c(nc3ccccc13)SC(C(Cl)Cl)C2 (centres undefined),inactive: -30.5%
22,COc1cc(I)ccc1[As](=O)(O)O,inactive: 3.39%
23,COc1ccc(N/C(=N/P(=O)(N2CCOCC2)N2CCOCC2)N2CCOCC2)cc1,inactive: 0.773%
24,C[As](=O)(O)c1cccc(C(=O)O)c1,inactive: -5.31%
25,O=[As](O)(c1ccc(O)cc1)c1ccccc1O,inactive: -27%

row,Compound,growth inhibition
1,O=[N+]([O-])c1cc([N+](=O)[O-])c(Nc2cccnc2)c([N+](=O)[O-])c1,inactive: -0.948%
2,Cc1ccc2nc3c(c(C)c2c1)CC(C(Cl)Cl)S3 (centres undefined),inactive: -15.8%
3,O=[N+]([O-])c1ccc2c(c1)C=Nc1ccccc1O2,inactive: -26.8%
4,CC(C)(C)c1ccc(OP(C)(=O)Nc2ccc(SC(F)(F)F)cc2)cc1 (centres undefined),inactive: 7.35%
5,Cc1ccc(OP(=O)(Nc2ccc([N+](=O)[O-])cn2)Oc2ccc(C)cc2)cc1,inactive: 3.12%
6,Cc1cccc(C)c1OP(C)(N)=O (centres undefined),inactive: 1.74%
7,COc1ccccc1OP(C)(=O)Nc1ccc(C)cc1 (centres undefined),inactive: 3.26%
8,CC(C)c1ccc(OP(=O)(Nc2ccccn2)Oc2ccccc2F)cc1 (centres undefined),inactive: -42.9%
9,Cc1ccc(NP(C)(=O)Oc2ccccc2)c(C)c1 (centres undefined),inactive: 0.707%
10,CCOC(=O)c1ccc(NP(C)(=O)Oc2ccccc2)cc1 (centres undefined),inactive: -7.68%
11,ClCCSc1nnc(-c2cccnc2)o1,inactive: 2.55%
12,Cc1cc(C)cc(OP(C)(N)=O)c1 (centres undefined),inactive: -5.58%
13,CCN(CC)C(=S)SC(NC=O)C(Cl)(Cl)Cl (centres undefined),inactive: -0.921%
14,COc1ccccc1OP(C)(=O)Nc1cc(Cl)ccc1C (centres undefined),inactive: -8.41%
15,CC(C)NC(=O)NP(=O)(Oc1ccccc1)Oc1ccccc1,inactive: -15.4%
16,O=[N+]([O-])c1cc([N+](=O)[O-])c(-c2ccn[nH]2)s1,inactive: 39.5%
17,COc1ccc(OP(C)(=O)Nc2cccc(F)c2)cc1 (centres undefined),inactive: 0.595%
18,CS(=O)(=O)c1cc([N+](=O)[O-])c2no[n+]([O-])c2c1,inactive: 6.4%
19,CCOP1(=S)c2c(C)nn(CCC#N)c2N=C(c2ccccc2F)N1C (centres undefined),inactive: -0.376%
20,O=C(O)c1cccc(Nc2c([N+](=O)[O-])cc([N+](=O)[O-])cc2[N+](=O)[O-])c1,inactive: -1.47%
21,O=P(Nc1nccs1)(c1ccccc1)c1nc2ccccc2s1 (centres undefined),inactive: -4.34%
22,O=P(Nc1nccs1)(Oc1ccccc1)Oc1ccccc1,inactive: 9.94%
23,Nc1ccccc1[As](=O)(O)c1ccccc1,inactive: 12.2%
24,O=C(O)COc1ccc([As](=O)(O)O)cc1[N+](=O)[O-],inactive: 4.27%
25,NC(=O)Nc1ccc([As](=O)(O)O)cc1,inactive: -12%

row,Compound,growth inhibition
1,CN(C)C(=O)c1cc([N+](=O)[O-])cc2c1-c1c(cc([N+](=O)[O-])cc1[N+](=O)[O-])C2=O,inactive: 21.8%
2,O=[N+]([O-])c1ccc2c(c1)nnn2O,inactive: 6.02%
3,CC1=NCCc2c1[nH]c1ccccc21.O=[N+]([O-])c1cc([N+](=O)[O-])c(O)c([N+](=O)[O-])c1,inactive: 14.4%
4,N#CCCN(C(=O)COC(=O)C(O)(c1ccccc1)c1ccccc1)c1ccc(F)cc1,inactive: 8.26%
5,CCOP1(=S)c2c(C)nn(CCC#N)c2N=C(c2ccc(F)cc2)N1C (centres undefined),inactive: -1.95%
6,CN(C(=O)Cc1ccccc1)[C@@H]1CC[C@]2(CCCO2)C[C@H]1N1CCCC1,inactive: -14%
7,COc1cc(C(=O)NCC2(N3CCOCC3)CCCCC2)cc(Cl)c1OC(C)C,inactive: -0.886%
8,O=[As](O)(O)c1cccnc1,inactive: -13.1%
9,CS(=O)(=O)c1ccc(Cl)c(NC(=O)COC(=O)C(O)(c2ccccc2)c2ccccc2)c1,inactive: -4.07%
10,COc1ccccc1OP(C)(=O)Nc1cccc(Br)c1 (centres undefined),inactive: -18%
11,O=C(OC1CN2CCC1CC2)c1ccc(Cl)cc1 (centres undefined),inactive: -4.88%
12,CCOC(=O)c1ccc(NP(C)(=O)Oc2cc(C)cc(C)c2)cc1 (centres undefined),inactive: -15%
13,O=[As](O)(c1cccc(O)c1)c1cccc(O)c1,inactive: 5.99%
14,Cc1cccc(OCC(=O)OC2CN3CCC2CC3)c1 (centres undefined),inactive: 7.53%
15,Cc1cc(C)cc(OP(C)(=O)Nc2ccc(C)cc2C)c1 (centres undefined),inactive: 2.57%
16,CCCOP(=S)(Nc1nc(N)cc(=O)[nH]1)OCCC,inactive: 4.99%
17,Cc1ccc(C)c(NP(C)(=O)Oc2ccccc2)c1 (centres undefined),inactive: -2.64%
18,CP(=O)(Nc1cccc(Br)c1)Oc1ccccc1 (centres undefined),inactive: -16.7%
19,Cc1cc(C)cc(OP(C)(=O)Nc2ccccn2)c1 (centres undefined),inactive: 33.2%
20,Nc1cccc2c([As](=O)(O)O)cccc12,inactive: 2.25%
21,Cc1ccc(NCCc2c([N+](=O)[O-])cc([N+](=O)[O-])cc2[N+](=O)[O-])cc1,inactive: 46.5%
22,CCOP(=O)(Nc1cccc2ccccc12)OCC,inactive: 16.2%
23,CN(CCCl)Cc1cc(Cl)c(NC2=NCCN2)c(Cl)c1,inactive: -13.6%
24,CCOP(=O)(Nc1ccc(C)cn1)OCC,inactive: -6.55%
